Target: Procathepsin L (Bos taurus, UniProt P25975)
Test: Inhibitory activity against bovine cathepsin L using Z-Phe-Arg-NHMec substrate

By UniProt entry, the sequences of proteins in these tests, tags left out. Where a name states a change or a piece, a line headed by the entry shows the natural chain unless it says otherwise.
UniProt P25975: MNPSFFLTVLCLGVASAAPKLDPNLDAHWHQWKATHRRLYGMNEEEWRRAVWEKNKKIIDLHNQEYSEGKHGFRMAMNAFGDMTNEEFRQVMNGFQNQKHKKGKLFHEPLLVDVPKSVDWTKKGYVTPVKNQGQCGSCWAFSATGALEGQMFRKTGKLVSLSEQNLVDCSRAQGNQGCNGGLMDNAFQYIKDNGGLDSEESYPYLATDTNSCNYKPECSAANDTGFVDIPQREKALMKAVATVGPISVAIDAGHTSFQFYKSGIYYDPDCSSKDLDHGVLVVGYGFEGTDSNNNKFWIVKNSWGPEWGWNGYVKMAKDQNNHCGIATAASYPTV

Ki	Compound
> 100000 nM	CC(C)(C)OC(=O)N[C@H](Cc1ccccc1)C(=O)NCC#N
520 nM	CC(C)(C)OC(=O)N[C@@H](Cc1ccccc1)C(=O)NCC#N
